# Earlier results in patent US20140100183A1, “CENTRAL ADMINISTRATION OF STABLE FORMULATIONS OF THERAPEUTIC AGENTS FOR CNS CONDITIONS” (The Regents of the University of Colorado, a body corporate, priority 2006, published 2014).
# Settings: qualitative, solvents as given in the source; cited from earlier work
substance,measurement,value
Semicarbazide hydrochloride [NORTRIPTYLINE],Comments: solubility,very slightly soluble in water and sparingly soluble in alcohol
